Patent publication US20230227428A1 (Anaxis Pharma Pty Ltd, priority 2020, published 2023)
pKd: −log10 of the molar value.

By UniProt entry, the sequences of proteins in these tests, tags left out. Where a name states a change or a piece, a line headed by the entry shows the natural chain unless it says otherwise.
UniProt Q9Y572: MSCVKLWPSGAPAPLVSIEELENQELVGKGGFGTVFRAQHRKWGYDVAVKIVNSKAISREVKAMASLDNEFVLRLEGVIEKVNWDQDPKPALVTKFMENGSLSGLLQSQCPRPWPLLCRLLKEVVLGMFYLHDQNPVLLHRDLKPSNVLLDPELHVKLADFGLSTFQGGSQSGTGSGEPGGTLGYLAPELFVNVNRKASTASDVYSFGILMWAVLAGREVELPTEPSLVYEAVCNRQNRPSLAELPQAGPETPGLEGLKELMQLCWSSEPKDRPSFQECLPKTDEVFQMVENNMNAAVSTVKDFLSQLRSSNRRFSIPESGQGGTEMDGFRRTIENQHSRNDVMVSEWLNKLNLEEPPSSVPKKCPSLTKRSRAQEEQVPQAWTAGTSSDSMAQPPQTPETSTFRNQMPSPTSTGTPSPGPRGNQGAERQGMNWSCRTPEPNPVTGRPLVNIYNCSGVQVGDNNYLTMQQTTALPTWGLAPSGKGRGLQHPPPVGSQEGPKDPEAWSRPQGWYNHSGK

Experiments:
Settings in all cases: equilibrium dissociation constant
MLKL (full length) = target: T1, MLKL (full length) (Homo sapiens, UniProt Q8NB16); test: KINOMEscan binding affinity assay, MLKL
T1 construct: purchased DiscoverX (KINOMEscan service); host or cells: E. coli BL21-derived host (T7 phage) or HEK-293
T1 sequence (Q8NB16 1-471): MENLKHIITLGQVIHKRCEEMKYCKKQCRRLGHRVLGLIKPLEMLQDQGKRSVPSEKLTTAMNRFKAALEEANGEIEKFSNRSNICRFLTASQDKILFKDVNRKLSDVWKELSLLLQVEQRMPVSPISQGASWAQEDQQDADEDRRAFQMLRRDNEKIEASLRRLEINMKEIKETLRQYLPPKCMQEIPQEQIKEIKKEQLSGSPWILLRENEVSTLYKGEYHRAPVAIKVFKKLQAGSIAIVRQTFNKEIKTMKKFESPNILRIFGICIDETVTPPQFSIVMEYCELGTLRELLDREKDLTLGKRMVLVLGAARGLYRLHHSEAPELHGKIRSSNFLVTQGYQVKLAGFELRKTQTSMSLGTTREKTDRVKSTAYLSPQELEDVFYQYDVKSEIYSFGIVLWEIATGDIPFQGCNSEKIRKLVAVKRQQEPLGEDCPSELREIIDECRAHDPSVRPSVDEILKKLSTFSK

RIP3 = target: T2, RIP3 (Homo sapiens, UniProt Q9Y572); test: KINOMEscan binding affinity assay, RIP3
T2 construct: purchased DiscoverX (KINOMEscan service); host or cells: E. coli BL21-derived host (T7 phage) or HEK-293

RIP1 = target: T3, RIP1 (Homo sapiens, UniProt Q13546); test: KINOMEscan binding affinity assay, RIP1
T3 construct: purchased DiscoverX (KINOMEscan service); host or cells: E. coli BL21-derived host (T7 phage) or HEK-293
T3 sequence (Q13546 1-671): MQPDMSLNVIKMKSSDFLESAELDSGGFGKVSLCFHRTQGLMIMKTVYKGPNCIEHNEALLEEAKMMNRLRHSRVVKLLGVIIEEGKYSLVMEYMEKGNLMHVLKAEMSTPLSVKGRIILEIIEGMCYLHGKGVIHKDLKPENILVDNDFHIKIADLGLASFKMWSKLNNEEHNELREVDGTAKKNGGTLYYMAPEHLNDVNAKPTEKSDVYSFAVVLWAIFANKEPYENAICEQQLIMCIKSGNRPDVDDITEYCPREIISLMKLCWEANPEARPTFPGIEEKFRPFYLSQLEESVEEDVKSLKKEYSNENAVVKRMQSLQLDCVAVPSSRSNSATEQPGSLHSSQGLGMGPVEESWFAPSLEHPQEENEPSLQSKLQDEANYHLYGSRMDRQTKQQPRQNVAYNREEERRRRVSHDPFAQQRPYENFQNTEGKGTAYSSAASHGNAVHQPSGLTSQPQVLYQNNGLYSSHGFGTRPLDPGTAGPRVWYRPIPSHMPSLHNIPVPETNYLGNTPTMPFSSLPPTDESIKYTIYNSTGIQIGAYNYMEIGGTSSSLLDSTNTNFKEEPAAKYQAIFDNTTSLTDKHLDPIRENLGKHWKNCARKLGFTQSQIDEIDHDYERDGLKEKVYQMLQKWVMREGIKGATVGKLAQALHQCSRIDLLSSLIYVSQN

Row | Compound | pKd (MLKL (full length)) | pKd (RIP3) | pKd (RIP1)
1 | COc1ccc(CC(=O)Nc2ccc(-c3n[nH]c(Nc4cnccn4)c3C(N)=O)cc2)cc1 [Compound 31, 3-(4-(2-(4-methoxyphenyl)acetamido)phenyl)-5-(pyrazin-2-ylamino)-1H-pyrazole-4-carboxamide] | > 7.00 | < 6.00 | < 6.00
2 | COc1cc(Nc2[nH]nc(-c3ccc(NC(=O)N4CCC(c5cnn(C)c5)C4)cc3)c2C(N)=O)ccn1 (stereo not drawn) [Compound 74, 5-((2-methoxypyridin-4-yl)amino)-3-(4-(3-(1-methyl-1H-pyrazol-4-yl)pyrrolidine-1-carboxamido)phenyl)-1H-pyrazole-4-carboxamide] | 6.00 to 7.00 | < 6.00 | < 6.00
3 | COc1cc(Nc2[nH]nc(-c3ccc(NC(=O)N4CC[C@@H](c5ccccc5)C4)cc3)c2C(N)=O)ccn1 [Compound 62, (S)-5-((2-methoxypyridin-4-yl)amino)-3-(4-(3-phenylpyrrolidine-1-carboxamido)phenyl)-1H-pyrazole-4-carboxamide] | > 7.00 | < 6.00 | < 6.00
4 | NC(=O)c1c(-c2ccc(NC(=O)Cc3ccc(C(F)(F)F)cc3)cc2)n[nH]c1Nc1ccccn1 [Compound 1, 3-(4-(2-(4-(trifluoromethyl)phenyl)acetamido)phenyl)-5-(pyridin-2-ylamino)-1H-pyrazole-4-carboxamide] | < 6.00 | < 6.00 | < 6.00
5 | COCCOc1ccnc(Nc2[nH]nc(-c3ccc(NC(=O)Cc4ccccc4)cc3)c2C(N)=O)c1 [Compound 45, 5-((4-(2-methoxyethoxy)pyridin-2-yl)amino)-3-(4-(2-phenyl-acetamido)phenyl)-1H-pyrazole-4-carboxamide] | 6.00 to 7.00 | < 6.00 | < 6.00
6 | COc1cc(Nc2[nH]nc(-c3ccc(NC(=O)N4CCC(c5ccc(OC(F)(F)F)cc5)C4)cc3)c2C(N)=O)ccn1 (stereo not drawn) [Compound 71, 5-((2-methoxypyridin-4-yl)amino)-3-(4-(3-(4-(trifluoromethoxy)phenyl)pyrrolidine-1-carboxamido)phenyl)-1H-pyrazole-4-carboxamide] | > 7.00 | < 6.00 | < 6.00
7 | NC(=O)c1c(-c2ccc(NC(=O)c3cnn(-c4ccc(OC(F)(F)F)cc4)c3)cc2)n[nH]c1Nc1cccc(C(F)(F)F)n1 [Compound 35] | < 6.00 | < 6.00 | < 6.00
8 | NC(=O)c1c(-c2ccc(NC(=O)Nc3ccc(OC(F)(F)F)cc3)cc2)n[nH]c1Nc1ccncc1 [Compound 109, 5-(pyridin-4-ylamino)-3-(4-(3-(4-(trifluoromethoxy)phenyl)ureido)phenyl)-1H-pyrazole-4-carboxamide] | 6.00 to 7.00 | < 6.00 | 6.00 to 7.00
9 | NC(=O)c1c(-c2ccc(NC(=O)N3CCc4ccccc4C3)cc2)n[nH]c1Nc1cccc(C(F)(F)F)n1 [Compound 75, N-(4-(4-carbamoyl-5-((6-(trifluoromethyl)pyridin-2-yl)amino)-1H-pyrazol-3-yl)phenyl)-3,4-dihydroiso-quinoline-2(1H)-carboxamide] | > 7.00 | < 6.00 | < 6.00
10 | COc1cccc(Nc2[nH]nc(-c3ccc(NC(=O)Cc4ccccc4)cc3)c2C(N)=O)c1 [Compound 46, 5-((3-methoxyphenyl)amino)-3-(4-(2-phenylacetamido)phenyl)-1H-pyrazole-4-carboxamide] | 6.00 to 7.00 | < 6.00 | < 6.00
11 | Cc1cccnc1Nc1[nH]nc(-c2ccc(NC(=O)Cc3ccccc3)cc2)c1C(N)=O [Compound 40, 5-((3-methylpyridin-2-yl)amino)-3-(4-(2-phenyl-acetamido)phenyl)-1H-pyrazole-4-carboxamide] | < 6.00 | < 6.00 | < 6.00
12 | COc1cc(Nc2[nH]nc(-c3ccc(NC(=O)N4CCCC(c5ccccc5)C4)cc3)c2C(N)=O)ccn1 (stereo not drawn) [Compound 59, N-(4-(4-carbamoyl-5-((2-methoxypyridin-4-yl)amino)-1H-pyrazol-3-yl)phenyl)-3-phenylpiperidine-1-carboxamide] | > 7.00 | < 6.00 | 6.00 to 7.00
13 | NC(=O)c1c(-c2ccc(NC(=O)N3CCCC(c4cccc(C(F)(F)F)c4)C3)cc2)n[nH]c1Nc1cnccn1 (stereo not drawn) [Compound 98, N-(4-(4-carbamoyl-5-(pyrazin-2-ylamino)-1H-pyrazol-3-yl)phenyl)-3-(3-(trifluoromethyl)phenyl)piperidine-1-carboxamide] | > 7.00 | < 6.00 | > 7.00
14 | NC(=O)c1c(-c2ccc(NC(=O)N3CCC[C@H](c4ccccc4)C3)cc2)n[nH]c1Nc1cnccn1 [Compound 90, (3R)-N-(4-{4-carbamoyl-5-[(pyrazin-2-yl)amino]-1H-pyrazol-3-yl}phenyl)-3-phenylpiperidine-1-carboxamide] | > 7.00 | < 6.00 | > 7.00
15 | COc1cc(Nc2[nH]nc(-c3ccc(NC(=O)N4Cc5ccccc5C4)cc3)c2C(N)=O)ccn1 [Compound 65, N-(4-(4-carbamoyl-5-((2-methoxypyridin-4-yl)amino)-1H-pyrazol-3-yl)phenyl)isoindoline-2-carboxamide] | > 7.00 | < 6.00 | < 6.00
16 | COc1cc(Nc2[nH]nc(-c3ccc(NC(=O)N4CCC(c5ccccc5)CC4)cc3)c2C(N)=O)ccn1 [Compound 49, N-(4-(4-carbamoyl-5-((2-methoxypyridin-4-yl)amino)-1H-pyrazol-3-yl)phenyl)-4-phenylpiperidine-1-carboxamide] | 6.00 to 7.00 | < 6.00 | < 6.00

Next, values leading:

Row | pKd (MLKL (full length)) | pKd (RIP3) | pKd (RIP1) | Compound
17 | 6.00 to 7.00 | < 6.00 | < 6.00 | CN(C)c1c(Nc2ccc(-c3n[nH]c(Nc4ccccn4)c3C(N)=O)cc2)c(=O)c1=O [Compound 117, 3-(4-((2-(dimethylamino)-3,4-dioxocyclobut-1-en-1-yl)amino)phenyl)-5-(pyridin-2-ylamino)-1H-pyrazole-4-carboxamide]
18 | > 7.00 | < 6.00 | < 6.00 | NC(=O)c1c(-c2ccc(NC(=O)Cc3cccc(Cl)c3)cc2)n[nH]c1Nc1cnccn1 [Compound 26, 3-(4-(2-(3-chlorophenyl)acetamido)phenyl)-5-(pyrazin-2-ylamino)-1H-pyrazole-4-carboxamide]
19 | 6.00 to 7.00 | < 6.00 | < 6.00 | NC(=O)c1c(-c2ccc(NC(=O)Cc3ccccc3)cc2)n[nH]c1Nc1ncccc1F [Compound 42, 5-((3-fluoropyridin-2-yl)amino)-3-(4-(2-phenyl-acetamido)phenyl)-1H-pyrazole-4-carboxamide]
20 | 6.00 to 7.00 | < 6.00 | < 6.00 | CC(C(=O)Nc1ccc(-c2n[nH]c(Nc3ccccn3)c2C(N)=O)cc1)c1ccccc1 (stereo not drawn) [Compound 6, 3-(4-(2-phenyl-propanamido)phenyl)-5-(pyridin-2-ylamino)-1H-pyrazole-4-carboxamide]
21 | > 7.00 | < 6.00 | 6.00 to 7.00 | NC(=O)c1c(-c2ccc(NC(=O)N3CCC[C@@H](c4ccccc4)C3)cc2)n[nH]c1Nc1cnccn1 [Compound 91, (3S)-N-(4-{4-carbamoyl-5-[(pyrazin-2-yl)amino]-1H-pyrazol-3-yl}phenyl)-3-phenylpiperidine-1-carboxamide]
22 | 6.00 to 7.00 | < 6.00 | < 6.00 | CNC(C(=O)Nc1ccc(-c2n[nH]c(Nc3ccccn3)c2C(N)=O)cc1)c1ccccc1 (stereo not drawn) [Compound 33, 3-(4-(2-(methylamino)-2-phenylacetamido)phenyl)-5-(pyridin-2-ylamino)-1H-pyrazole-4-carboxamide]
23 | > 7.00 | < 6.00 | < 6.00 | CN(c1ccccc1)c1c(Nc2ccc(-c3n[nH]c(Nc4ccccn4)c3C(N)=O)cc2)c(=O)c1=O [Compound 126, 3-(4-((2-(methyl(phenyl)amino)-3,4-dioxocyclobut-1-en-1-yl)amino)phenyl)-5-(pyridin-2-ylamino)-1H-pyrazole-4-carboxamide]
24 | < 6.00 | < 6.00 | < 6.00 | COc1ccc(Nc2c(Nc3ccc(-c4n[nH]c(Nc5ccccn5)c4C(N)=O)cc3)c(=O)c2=O)cc1 [Compound 121, 3-(4-((2-((4-methoxyphenyl)amino)-3,4-dioxocyclobut-1-en-1-yl)amino)phenyl)-5-(pyridin-2-ylamino)-1H-pyrazole-4-carboxamide]
